Assay results published in patent US8563545B2, “Compound useful for the treatment of degenerative and inflammatory diseases” (Galapagos NV, priority 2009, dated 2013).
“And” between values parts separate entries of the source, which are not always exact repeats. Equal values may be shown once.

Amino acid sequences for entries named in this document (tags omitted). Residues count along the entry.
UniProt P23458, 850-1154: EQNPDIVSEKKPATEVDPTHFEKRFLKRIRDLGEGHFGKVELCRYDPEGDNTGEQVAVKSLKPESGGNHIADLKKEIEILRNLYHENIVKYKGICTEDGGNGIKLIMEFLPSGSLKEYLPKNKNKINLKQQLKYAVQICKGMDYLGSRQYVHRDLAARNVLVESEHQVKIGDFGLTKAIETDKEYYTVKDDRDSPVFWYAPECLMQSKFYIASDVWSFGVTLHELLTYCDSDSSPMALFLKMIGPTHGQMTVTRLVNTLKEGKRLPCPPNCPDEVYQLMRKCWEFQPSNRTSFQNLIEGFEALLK

Biological target: JAK1 (Homo sapiens (Human), UniProt P23458)
Assay: JAK1 inhibition assay
Format: biochemical

SMILES: O=C(Nc1nc2cccc(-c3ccc(CN4CCOCC4)cc3)n2n1)C1CC1 [Compound 2, N-(5-(4-(morpholinomethyl)phenyl)-[1,2,4]triazolo[1,5-a]pyridin-2-yl)cyclopropanecarboxamide]
- IC50: 50.9 nM and 52.1 nM
